Earlier results on one molecule are cited in patent EP1366765A1, “Use of matrix metalloproteinase inhibitors for treating neurological disorders and promoting wound healing” (priority 1996, dated 1998).

The data set has as its target T1, MMP-1 (Homo sapiens, UniProt P03956).
T1 sequence (P03956 100-469): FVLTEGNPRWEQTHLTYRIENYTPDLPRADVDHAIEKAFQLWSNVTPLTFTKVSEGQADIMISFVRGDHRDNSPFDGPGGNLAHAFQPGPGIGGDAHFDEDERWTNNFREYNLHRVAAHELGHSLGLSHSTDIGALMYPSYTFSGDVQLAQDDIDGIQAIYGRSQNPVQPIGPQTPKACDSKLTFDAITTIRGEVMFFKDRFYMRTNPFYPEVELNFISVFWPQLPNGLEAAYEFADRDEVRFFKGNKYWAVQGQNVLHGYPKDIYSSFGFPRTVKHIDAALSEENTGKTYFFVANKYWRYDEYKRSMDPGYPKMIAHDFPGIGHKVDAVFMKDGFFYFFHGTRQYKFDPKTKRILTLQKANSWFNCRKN
The conditions noted are these: IA = inactive; cited from earlier work.

As a reminder, the IC50 is the concentration that inhibits the measured activity by half. Take `COc1ccc(S(=O)(=O)N(Cc2cccnc2)[C@@H](C(=O)NO)C(C)C)cc1` [Compound 40]: the IC50 is 380 nM.
